The structures appear in SMILES notation.

Assay [1] deals with T1, SARS CoV-2 PLpro (Severe acute respiratory syndrome coronavirus 2 (2019-nCoV) (SARS-CoV-2), UniProt P0DTD1). In words: biochemical.
Assay [2] addresses T1, SARS CoV-2 PLpro. Briefly: biochemical. The settings on record: FRET Enzymatic assay IC50.
Assay [3] addresses T1, SARS CoV-2 PLpro. In words: cell-based. The settings on record: FlipGFP-PLpro assay EC50.
Assay [4] addresses T1, SARS CoV-2 PLpro. Briefly: biochemical. The source holds these as a separate data set.
The test system of another assay is SARS-CoV-2 USA/WA1/2020. Type of assay: cell-based.

In turn, `Cc1ccc(NC2CNC2)cc1C(=O)N[C@H](C)c1cccc(-c2ncc(CNC3CCCC3)s2)c1` came in with an IC50 against SARS CoV-2 PLpro [1] (Enzymatic assay IC50) of 1560 nM. As for `Cc1ccc(OC2CNC2)cc1C(=O)N[C@H](C)c1cccc(-c2ccc(CN3C(=O)[C@@H]4CC[C@H]3C4)s2)c1`, the midpoint of inhibition against SARS CoV-2 PLpro [2], the IC50, lay at 1910 ± 110 nM. Further, the EC50 at SARS CoV-2 PLpro [3] is more than 10 µM.

With `CC(=O)Nc1ccc(C)c(C(=O)N[C@H](C)c2cccc(-c3ccc(CN4CCCC4)s3)c2)c1`, on SARS CoV-2 PLpro [1] (Enzymatic assay IC50), 2420 nM corresponded to half-maximal inhibition (IC50).

On to `Cc1ccc(NC2CNC2)cc1C(=O)N[C@H](C)c1cccc(-c2cc(C)c(CNC3CCCC3)s2)c1`, for which, at SARS CoV-2 PLpro [1] (Enzymatic assay IC50), the midpoint of inhibition, the IC50, lay at 652 nM. Still for that read-out and setting: in the case of `Cc1ccc(NC2CNC2)cc1C(=O)N[C@H](C)c1cccc(-c2ccc(C(F)(F)F)s2)c1` it was 6120 nM. Take `Cc1ccc(OC2CNC2)cc1C(=O)N[C@H](C)c1cccc(-c2ccc(CN[C@H]3CC[C@@H](C(=O)OC[C@H]4O[C@@H](n5ccc(N)nc5=O)[C@H](O)[C@@H]4O)C3)s2)c1`: the IC50 on SARS CoV-2 PLpro [2] came out at 800 ± 80 nM. Also, on SARS CoV-2 PLpro [3], the EC50 was more than 20 µM.

At SARS CoV-2 PLpro [1] (Enzymatic assay IC50), `Cc1ccc(NC2CNC2)cc1C(=O)N[C@H](C)c1cccc(-c2ccc(C#N)s2)c1` showed an IC50 of 5530 nM.

`Cc1ccc(NC2CNC2)cc1C(=O)N[C@H](C)c1cccc(-c2ccc(-c3cccs3)s2)c1`: the IC50 against SARS CoV-2 PLpro [1] (Enzymatic assay IC50) was found to be 4430 nM. Same read-out and setting: in the case of `Cc1ccc(NC2CNC2)cc1C(=O)N[C@H](C)c1cccc(-c2ccc(Cl)s2)c1` it was 1510 nM.

`Cc1ccc(OC2CNC2)cc1C(=O)N[C@H](C)c1cccc(-c2ccc(CNC3CCCC3)o2)c1` displayed an IC50 at SARS CoV-2 PLpro [2] of 3490 ± 350 nM. At SARS CoV-2 PLpro [3], this compound registered an EC50 of more than 20 µM. In turn, `Cc1csc(-c2cccc([C@@H](C)NC(=O)c3cc(NC4CNC4)ccc3C)c2)c1` showed an IC50 on SARS CoV-2 PLpro [1] (Enzymatic assay IC50) of 1930 nM. Still for that read-out and setting: in the case of `Cc1ccc(N)cc1C(=O)N[C@H](C)c1cccc(-c2ccc(CN[C@H]3CC[C@@H](O)C3)s2)c1` [drawing 513] it was 597 nM; in that of `Cc1ccc(NC2CNC2)cc1C(=O)N[C@H](C)c1cccc(-c2cc3ccccc3s2)c1`, 1130 nM. On the same count and under the same terms, the figure for `CC(=O)Nc1ccc(C)c(C(=O)N[C@H](C)c2cccc(-c3ccc(CNC4CCCC4)s3)c2)c1` is 1790 nM. With `Cc1ccc(NC2CNC2)cc1C(=O)N[C@H](C)c1cccc(-c2ccc(CN[C@H]3CC[C@@H](C(=O)O)C3)s2)c1` [Example 157, (1R,3S)-3-(((5-(3-((R)-1-(5-(azetidin-3-ylamino)-2-methylbenzamido)ethyl)phenyl)thiophen-2-yl)methyl)amino)cyclopentane-1-carboxylic acid], the IC50 against SARS CoV-2 PLpro [2] is 600 nM. Besides, at SARS CoV-2 PLpro [3], the EC50 is more than 60 µM. At SARS CoV-2 PLpro [2], `Cc1ccc(OC2CNC2)cc1C(=O)N[C@H](C)c1cccc(-c2ccc(CN[C@H]3CC[C@@H](C(=O)O)C3)s2)c1` gave an IC50 of 580 ± 70 nM. The EC50 on SARS CoV-2 PLpro [3] is more than 60 µM.

On to `Cc1ccc(OC2CCNCC2)cc1C(=O)N[C@H](C)c1cccc(-c2ccc(CNC3CCCC3)s2)c1`, for which the midpoint of inhibition on SARS CoV-2 PLpro [2], the IC50, lay at 1770 ± 200 nM. Further, the EC50 at SARS CoV-2 PLpro [3] is more than 60 µM. In turn, `Cc1ccc(N)cc1C(=O)N[C@H](C)c1cccc(-c2ccc(CN3CCCC3)s2)c1` returned an IC50 at SARS CoV-2 PLpro [1] (Enzymatic assay IC50) of 1690 nM. This lies in the single-digit micromolar range.

Turning to `Cc1ccc(NC2CNC2)cc1C(=O)N[C@H](C)c1cccc(-c2ccc(-c3ccccc3)s2)c1`, it took 4760 nM to reach half-maximal inhibition against SARS CoV-2 PLpro [1] (Enzymatic assay IC50) (IC50). As for `Cc1ccc(N)cc1C(=O)N[C@H](C)c1cccc(-c2ccc(CNC3CCCC3)s2)c1`, the IC50 at SARS CoV-2 PLpro [1] (Enzymatic assay IC50) turned out to be 1390 nM. Regarding `Cc1ccc(NC2CNC2)cc1C(=O)N[C@H](C)c1cccc(-c2cc(C)c(CN[C@H]3CC[C@@H](O)C3)s2)c1`, it took 328 nM to reach half-maximal inhibition against SARS CoV-2 PLpro [1] (Enzymatic assay IC50) (IC50). The compound `Cc1ccc(N)cc1C(=O)N[C@H](C)c1cccc(-c2ccc(CN[C@H]3CC[C@@H](O)C3)s2)c1` [XR8-106] showed an IC50 against SARS CoV-2 PLpro [1] (IC50) of 1400 nM. For the same compound, the affinity on SARS CoV-2 PLpro [4] (KD), expressed as Kd, was 2200 nM. At SARS CoV-2 PLpro [1] (Enzymatic assay IC50), `Cc1ccc(NC2CNC2)cc1C(=O)N[C@H](C)c1cccc(-c2cc3sccc3s2)c1` registered an IC50 of 824 nM.

`Cc1ccc(NC2CNC2)cc1C(=O)N[C@H](C)c1cccc(-c2cc(C)c(CN3CCCC3)s2)c1` returned an IC50 against SARS CoV-2 PLpro [1] (Enzymatic assay IC50) of 918 nM. Regarding `Cc1ccc(NC2CNC2)cc1C(=O)N[C@H](C)c1cccc(-c2ccc(CNC3CCCC3)s2)c1` [XR8-23], the Kd at SARS CoV-2 PLpro [4] (KD1) amounted to 259 nM; at SARS CoV-2 PLpro [4] (KD2), 277 nM; at SARS CoV-2 PLpro [4] (KD3), 196 nM; on SARS CoV-2 PLpro [4] (KD4), 209 nM. In addition, the “effect of treatment on viral RNA versus vehicle control” value in the assay on SARS-CoV-2 USA/WA1/2020 was “significantly different from vehicle control”. As to `Cc1ccc(NC2CNC2)cc1C(=O)N[C@H](C)c1cccc(-c2ccc(CNC3CCCC3)s2)c1` [Example 71, (R)-5-(azetidin-3-ylamino)-N-(1-(3-(5-((cyclopentylamino)methyl)thiophen-2-yl)phenyl)ethyl)-2-methylbenzamide], at SARS CoV-2 PLpro [4] (SPR binding assay KD), the Kd is 110 nM. Take `Cc1ccc(NC2CNC2)cc1C(=O)N[C@H](C)c1cccc(-c2ccc(CN[C@H]3CC[C@@H](C(=O)OC[C@H]4O[C@@H](n5ccc(NO)nc5=O)[C@H](O)[C@@H]4O)C3)s2)c1`: half-maximal inhibition against SARS CoV-2 PLpro [1] (Enzymatic assay IC50) (IC50) was put at 627 nM.
